Measurements reported in ChEMBL document CHEMBL1128530, “Alpha- and beta-adrenoceptors: from the gene to the clinic. 1. Molecular biology and adrenoceptor subclassification” (J Med Chem, 1995).

By UniProt entry, the sequences of proteins in these tests, tags left out. Where a name states a change or a piece, a line headed by the entry shows the natural chain unless it says otherwise.
UniProt P30545: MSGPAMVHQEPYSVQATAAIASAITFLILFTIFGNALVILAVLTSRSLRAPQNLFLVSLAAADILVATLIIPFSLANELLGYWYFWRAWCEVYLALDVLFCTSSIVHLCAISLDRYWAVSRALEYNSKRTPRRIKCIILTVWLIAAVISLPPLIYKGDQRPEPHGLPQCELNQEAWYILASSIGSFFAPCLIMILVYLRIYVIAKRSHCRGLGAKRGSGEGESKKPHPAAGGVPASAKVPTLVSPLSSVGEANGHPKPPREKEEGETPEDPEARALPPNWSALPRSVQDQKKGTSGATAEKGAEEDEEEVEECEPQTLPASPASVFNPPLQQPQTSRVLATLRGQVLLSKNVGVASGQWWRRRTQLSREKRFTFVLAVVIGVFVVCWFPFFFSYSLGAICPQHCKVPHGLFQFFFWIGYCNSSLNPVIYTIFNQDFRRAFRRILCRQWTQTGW
UniProt Q01338: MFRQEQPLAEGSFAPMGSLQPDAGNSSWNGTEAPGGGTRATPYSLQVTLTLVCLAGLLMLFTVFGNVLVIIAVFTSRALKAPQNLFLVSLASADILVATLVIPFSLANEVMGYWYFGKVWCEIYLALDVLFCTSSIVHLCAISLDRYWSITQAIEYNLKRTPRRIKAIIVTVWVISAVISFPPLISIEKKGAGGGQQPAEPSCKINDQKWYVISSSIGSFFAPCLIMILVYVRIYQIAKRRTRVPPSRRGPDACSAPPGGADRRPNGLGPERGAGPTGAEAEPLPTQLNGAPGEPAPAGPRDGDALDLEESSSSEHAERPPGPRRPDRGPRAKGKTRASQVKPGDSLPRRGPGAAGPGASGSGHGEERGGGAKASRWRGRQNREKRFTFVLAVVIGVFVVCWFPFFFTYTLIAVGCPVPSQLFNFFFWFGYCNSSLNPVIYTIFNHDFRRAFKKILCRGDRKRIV
UniProt Q01337: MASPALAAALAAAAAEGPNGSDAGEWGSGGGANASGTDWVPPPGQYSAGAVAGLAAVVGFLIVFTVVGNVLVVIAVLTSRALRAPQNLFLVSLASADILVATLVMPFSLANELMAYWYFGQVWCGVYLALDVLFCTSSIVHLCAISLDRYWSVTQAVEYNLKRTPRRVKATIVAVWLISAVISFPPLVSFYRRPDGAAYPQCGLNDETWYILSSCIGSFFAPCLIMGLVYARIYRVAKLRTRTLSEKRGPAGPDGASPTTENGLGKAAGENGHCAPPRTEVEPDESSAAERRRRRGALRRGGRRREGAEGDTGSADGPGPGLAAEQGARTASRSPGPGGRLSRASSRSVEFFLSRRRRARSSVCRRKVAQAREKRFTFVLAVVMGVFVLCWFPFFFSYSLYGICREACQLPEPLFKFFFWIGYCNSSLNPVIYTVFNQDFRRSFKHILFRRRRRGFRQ
UniProt P35368, whole entry: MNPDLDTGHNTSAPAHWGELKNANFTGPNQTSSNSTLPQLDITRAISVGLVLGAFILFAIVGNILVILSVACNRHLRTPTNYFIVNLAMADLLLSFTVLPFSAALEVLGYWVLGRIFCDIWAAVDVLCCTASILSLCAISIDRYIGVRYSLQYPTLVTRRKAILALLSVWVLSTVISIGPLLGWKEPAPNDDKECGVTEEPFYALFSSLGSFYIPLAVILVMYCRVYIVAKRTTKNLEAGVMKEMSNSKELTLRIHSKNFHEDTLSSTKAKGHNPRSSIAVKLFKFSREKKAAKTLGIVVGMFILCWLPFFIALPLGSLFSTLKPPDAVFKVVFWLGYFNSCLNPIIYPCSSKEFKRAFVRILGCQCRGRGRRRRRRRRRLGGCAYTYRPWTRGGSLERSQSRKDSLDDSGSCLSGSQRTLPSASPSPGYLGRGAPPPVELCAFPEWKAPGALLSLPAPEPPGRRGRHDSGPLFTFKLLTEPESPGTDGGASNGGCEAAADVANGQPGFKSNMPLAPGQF

Experiments:
[1] = molecular target: T1, Alpha-2 adrenergic receptor (Mus musculus, UniProt P30545+Q01338+Q01337); assay: Compound was evaluated for inhibition of binding of [3H]MK-91 to Alpha-2 adrenergic receptor in M alpha-10H (mouse); type: protein assay
[2] = molecular target: T1, Alpha-2 adrenergic receptor; assay: Compound was evaluated for inhibition of binding of [3H]-MK-91 to Alpha-2 adrenergic receptor in Malpha-2 4H; type: protein assay
[3] = molecular target: Alpha-1B adrenergic receptor (Homo sapiens, UniProt P35368); assay: Binding affinity against Alpha-1B adrenergic receptor from human clone

COc1cc2nc(N3CCN(C(=O)c4ccco4)CC3)nc(N)c2cc1OC [PRAZOSIN]
Ki [1]: 2150 nM
Ki [2]: 97 nM

COc1cc2nc(N3CCN(C(=O)C4COc5ccccc5O4)CC3)nc(N)c2cc1OC (stereo not drawn) [DOXAZOSIN]
Ki [3]: 0.74 nM
